For one assay, the system named is DB. Put plainly: Antiproliferative activity against human DB cells expressing EZH2 mutant assessed as growth inhibition measured after 72 hrs by AlamaBlue assay. Format: functional, cell-based.
In a further assay the test system is Toledo. Put plainly: Antiproliferative activity against human Toledo cells expressing wild-type EZH2 assessed as growth inhibition measured after 72 hrs by AlamaBlue assay. It is filed as functional, cell-based.

The structures appear in SMILES notation.

These results are taken from ChEMBL document CHEMBL3822429, “Identification of novel EZH2 inhibitors through pharmacophore-based virtual screening and biological assays” (Bioorg Med Chem Lett, 2016).

`COc1ccc2nc(Nc3nc(O)cc(CSc4nnnn4-c4ccccc4)n3)nc(C)c2c1`: the inhibition entry with DB and in the assay on Toledo was “Dose-dependent effect” each time.
